{"source": "patent US9169279B2", "about": "“Crystallization method and bioavailability” (THAR PHARMACEUTICALS, INC., priority 2009, dated 2015)", "test": "Dog PK study: zoledronic acid in serum after IV or oral capsule dosing, enteric or non-enteric coated, with or without excess coformer (LC/MS/MS)", "format": "in vivo", "conditions": "beagle, saline solution, read-out: Average serum concentration of 5 dogs", "data": [{"smiles": "O=P(O)(O)C(O)(Cn1ccnc1)P(=O)(O)O", "note": "[Zoledronic acid, (1-hydroxy-2-imidazol-1-yl-1-phosphono-ethyl)phosphonic acid]", "values": [{"measurement": "concentration at 20 min", "setting": "intravenous, 0.12 mg/kg, Leg 18, 15 min IV infusion 0.12 mg/kg, Time 0.3333 hour", "value": 502, "unit": "ng/mL"}, {"measurement": "concentration at 0.5 hour", "setting": "iv, 0.05 mg/kg, zoledronic acid in dog serum, Leg 1, IV 0.05 mg/kg, Time 0.5 hour", "value": 111, "unit": "ng/mL"}]}]}
